The values that follow are results of earlier work, collected in paper PMC5773580, “A synthetic combinatorial approach to disabling deviant Hedgehog signaling” (Scientific Reports, 2018).

The target in the series is T1, HDAC10 (Homo sapiens, UniProt Q969S8).
T1 sequence (Q969S8 1-669): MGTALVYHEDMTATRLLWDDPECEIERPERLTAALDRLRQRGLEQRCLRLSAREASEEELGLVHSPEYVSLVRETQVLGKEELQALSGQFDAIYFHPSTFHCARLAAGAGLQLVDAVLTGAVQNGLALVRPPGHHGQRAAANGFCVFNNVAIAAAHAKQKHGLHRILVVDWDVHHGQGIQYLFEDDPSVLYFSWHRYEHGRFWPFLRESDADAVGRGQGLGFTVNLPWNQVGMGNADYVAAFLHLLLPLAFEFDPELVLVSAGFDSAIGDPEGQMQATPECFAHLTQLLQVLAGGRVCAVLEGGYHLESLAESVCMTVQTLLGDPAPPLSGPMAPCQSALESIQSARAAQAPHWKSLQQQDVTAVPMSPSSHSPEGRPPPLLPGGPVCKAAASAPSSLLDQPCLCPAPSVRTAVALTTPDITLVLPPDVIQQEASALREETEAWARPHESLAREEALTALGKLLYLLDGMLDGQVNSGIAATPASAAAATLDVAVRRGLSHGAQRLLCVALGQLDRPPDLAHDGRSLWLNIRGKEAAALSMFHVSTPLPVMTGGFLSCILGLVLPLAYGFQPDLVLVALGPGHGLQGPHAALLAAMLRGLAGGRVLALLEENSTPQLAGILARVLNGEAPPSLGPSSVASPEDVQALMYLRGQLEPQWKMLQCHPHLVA
Particulars: read-out: IC50 (HDAC10); reference dataset, same assay platform (BPS) ref 23; cited from earlier work.

Usually IC50 stands for the midpoint of a concentration-inhibition curve. Consider `O=C(CCCCCCC(=O)Nc1ccccc1)NO` [SAHA, suberanilohydroxamic acid], for which the half-maximal inhibitory concentration (IC50) was 58 nM.
